Assay results published in US8034936B2, “Spirocyclic cyclohexane compounds useful to treat substance dependency” (Gruenenthal GmbH, priority 2005, dated 2011).

Sequences of proteins named here, by UniProt entry; tags and fusion partners are left off. A change or cut given only in a name is not applied to a line headed by its entry.
UniProt P35372, whole entry, looked up: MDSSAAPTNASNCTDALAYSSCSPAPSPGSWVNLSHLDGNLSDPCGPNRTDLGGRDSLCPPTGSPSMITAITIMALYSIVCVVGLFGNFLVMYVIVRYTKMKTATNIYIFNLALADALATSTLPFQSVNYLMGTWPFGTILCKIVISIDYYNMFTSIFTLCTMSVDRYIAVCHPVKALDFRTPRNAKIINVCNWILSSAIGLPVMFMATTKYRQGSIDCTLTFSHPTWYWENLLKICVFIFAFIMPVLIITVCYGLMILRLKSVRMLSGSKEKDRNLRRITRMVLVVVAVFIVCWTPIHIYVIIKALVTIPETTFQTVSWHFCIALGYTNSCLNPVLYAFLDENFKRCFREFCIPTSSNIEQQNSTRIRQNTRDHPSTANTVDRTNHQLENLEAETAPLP
UniProt P41146: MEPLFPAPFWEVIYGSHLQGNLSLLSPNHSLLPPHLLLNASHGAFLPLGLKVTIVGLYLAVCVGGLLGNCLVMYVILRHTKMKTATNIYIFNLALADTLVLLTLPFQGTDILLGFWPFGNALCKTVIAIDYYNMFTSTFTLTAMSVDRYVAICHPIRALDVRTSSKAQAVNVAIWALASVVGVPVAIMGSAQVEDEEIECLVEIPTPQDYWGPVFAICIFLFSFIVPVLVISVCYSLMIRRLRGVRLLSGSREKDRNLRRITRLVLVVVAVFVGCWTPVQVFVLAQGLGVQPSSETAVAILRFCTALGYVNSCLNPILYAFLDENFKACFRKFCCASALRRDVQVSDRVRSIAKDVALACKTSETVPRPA

What was measured:
human μ-opiate receptor = human μ-opiate receptor (Homo sapiens, UniProt P35372); assay: μ-opiate receptor binding, [3H]-naloxone displacement, CHO-K1 membrane preparation
ORL1 receptor = ORL1 receptor (Homo sapiens, UniProt P41146); assay: ORL1 receptor binding assay with 3H-nociceptin/orphanin FQ, membranes of recombinant CHO-ORL1 cells
[1] = read-out: ORL1 human Ki, No. 1-49

Row | Structure (SMILES) | Ki (human μ-opiate receptor; read-out: μ Ki, No. 1-49) [µM] | ORL1/μ Ratio calculated as Ki(μ)/Ki(ORL1) (ORL1 receptor; No. 1-49) | Ki (ORL1 receptor; [1]) [µM] | Ki (human μ-opiate receptor; read-out: μ, Ki, No. 50-145) [µM] | ORL1/μ ratio (ORL1 receptor; No. 50-145) | Ki (ORL1 receptor; read-out: ORL1, Ki, No. 50-145) [µM] | μ-opiate-receptor [1 μM], % inhibition (human μ-opiate receptor) [%] | ORL-1 [1 μM], % inhibition (ORL1 receptor) [%]
1 | Cc1ccc2[nH]c3c(c2c1)CC(C)OC31CCC(c2ccccc2)(N(C)C)CC1 (stereo not shown) | 0.014 | 3.18 | 0.0044 |  |  |  |  | 
2 | CC1Cc2c([nH]c3ccc(F)cc23)C2(CCC(c3ccccc3)(N(C)C)CC2)O1 (stereo not shown) | 0.06 | 0.73 | 0.08 |  |  |  |  | 
3 | CN(C)C1(c2cccc(F)c2)CCC2(CC1)c1[nH]c3ccccc3c1CCN2C(=O)c1ccco1 (stereo not shown) |  |  |  | 0.069 | 3.14 | 0.022 |  | 
4 | CCCCC(CC)C(=O)N1CCc2c([nH]c3ccccc23)C12CCC(c1ccccc1)(N(C)C)CC2 (stereo not shown) |  |  |  | 0.049 | 1.04 | 0.047 |  | 
5 | CN(C)C1(Cc2ccccc2)CCC2(CC1)c1[nH]c3ccccc3c1CCN2C(=O)C1CCCCC1 (stereo not shown) |  |  |  | 0.017 | 1.31 | 0.013 |  | 
6 | CN(C)C1(c2ccccc2)CCC2(CC1)NCCc1c2[nH]c2cc(F)ccc12 (stereo not shown) | 0.02 | 2.46 | 0.007 |  |  |  |  | 
7 | CN(C)C1(Cc2ccccc2)CCC2(CC1)c1[nH]c3ccccc3c1CCN2C(=O)c1c(F)cccc1C(F)(F)F (stereo not shown) |  |  |  | 0.034 | 0.62 | 0.055 |  | 
8 | CN(C)C1(c2ccccn2)CCC2(CC1)NCCc1c2[nH]c2ccccc12 (stereo not shown) | 0.0028 | 1.75 | 0.0016 |  |  |  |  | 
9 | Cc1ccc2[nH]c3c(c2c1)CCOC31CCC(c2ccccc2)(N(C)C)CC1 (stereo not shown) | 0.0027 | 0.60 | 0.0045 |  |  |  |  | 
10 | CN(C)C1(c2cccc(F)c2)CCC2(CC1)c1[nH]c3ccccc3c1CCN2C(=O)c1cc(F)cc(F)c1 (stereo not shown) |  |  |  | 0.0037 | 1.06 | 0.0035 |  | 
11 | CN(C)C1(c2cccc(F)c2)CCC2(CC1)OCCc1c2[nH]c2ccccc12 (stereo not shown) | 0.0022 | 1.79 | 0.0012 |  |  |  |  | 
12 | CN(C)C1(c2cccc(F)c2)CCC2(CC1)c1[nH]c3ccccc3c1CCN2C(=O)c1ccc(C(F)(F)F)cc1F (stereo not shown) |  |  |  | 0.0035 | 0.80 | 0.0044 |  | 
13 | Cc1cccc(C(=O)N2CCc3c([nH]c4ccccc34)C23CCC(Cc2ccccc2)(N(C)C)CC3)c1 (stereo not shown) |  |  |  | 0.012 | 0.75 | 0.016 |  | 
14 | COc1cc(C(=O)N2CCc3c([nH]c4ccccc34)C23CCC(c2cccc(F)c2)(N(C)C)CC3)cc(OC)c1OC (stereo not shown) |  |  |  | 0.023 | 1.21 | 0.019 |  | 
15 | CCCCC(=O)N1CCc2c([nH]c3ccccc23)C12CCC(Cc1ccccc1)(N(C)C)CC2 (stereo not shown) |  |  |  | 0.0027 | 0.63 | 0.0043 |  | 
16 | COC(=O)c1ccc2[nH]c3c(c2c1)CCOC31CCC(c2ccccc2)(N(C)C)CC1 (stereo not shown) |  |  |  |  |  |  | 74 | 11
17 | CN(C)C1(c2ccccc2)CCC2(CC1)c1[nH]c3ccccc3c1CCN2C(=O)CCC1CCCC1 (stereo not shown) |  |  |  | 0.012 | 1.29 | 0.0093 |  | 
18 | CN(C)C1(c2cccc(F)c2)CCC2(CC1)c1[nH]c3ccccc3c1CCN2C(=O)c1c(F)cccc1C(F)(F)F (stereo not shown) |  |  |  | 0.0036 | 0.67 | 0.0054 |  | 
19 | CCC(=O)N1CCc2c([nH]c3ccccc23)C12CCC(c1cccc(F)c1)(N(C)C)CC2 (stereo not shown) |  |  |  | 0.061 | 1.07 | 0.057 |  | 

Row | Structure (SMILES) | Ki (human μ-opiate receptor; read-out: μ Ki, No. 1-49) [µM] | ORL1/μ Ratio calculated as Ki(μ)/Ki(ORL1) (ORL1 receptor; No. 1-49) | Ki (ORL1 receptor; [1]) [µM] | Ki (human μ-opiate receptor; read-out: μ, Ki, No. 50-145) [µM] | ORL1/μ ratio (ORL1 receptor; No. 50-145) | Ki (ORL1 receptor; read-out: ORL1, Ki, No. 50-145) [µM] | μ-opiate-receptor [1 μM], % inhibition (human μ-opiate receptor) [%] | ORL-1 [1 μM], % inhibition (ORL1 receptor) [%]
20 | CN(C)C1(c2ccccc2)CCC2(CC1)OCCc1c2[nH]c2ccc(-c3cccnc3)cc12 (stereo not shown) |  |  |  |  |  |  | 89 | 5
21 | CN(C)C1(c2ccccc2)CCC2(CC1)NC(CO)Cc1c2[nH]c2ccccc12 (stereo not shown) | 0.0027 | 2.70 | 0.001 |  |  |  |  | 
22 | CN(C)C1(c2cccc(F)c2)CCC2(CC1)c1[nH]c3ccccc3c1CCN2C(=O)c1c(F)cccc1F (stereo not shown) |  |  |  | 0.0078 | 0.88 | 0.0089 |  | 
23 | CC(=O)N1CCc2c([nH]c3ccccc23)C12CCC(c1ccccc1)(N(C)C)CC2 (stereo not shown) | 0.006 | 1.98 | 0.0029 |  |  |  |  | 
24 | CN(C)C1(c2ccccc2)CCC2(CC1)c1[nH]c3ccccc3c1CCN2C(=O)c1cccc([N+](=O)[O-])c1 (stereo not shown) |  |  |  | 0.035 | 0.51 | 0.069 |  | 
25 | CN(C)C1(c2ccccc2)CCC2(CC1)c1[nH]c3ccccc3c1CCN2C(=O)c1ccc(C(F)(F)F)cc1F (stereo not shown) |  |  |  | 0.031 | 0.48 | 0.065 |  | 
26 | CN(C)C1(c2ccccc2)CCC2(CC1)NCCc1c2oc2ccccc12 (stereo not shown) |  |  | 0.07 |  |  |  |  | 
27 | CN(C)C1(Cc2ccccc2)CCC2(CC1)c1[nH]c3ccccc3c1CCN2C(=O)C1CCC1 (stereo not shown) |  |  |  | 0.048 | 1.17 | 0.041 |  | 
28 | CN(C)C1(c2ccccc2)CCC2(CC1)c1[nH]c3ccccc3c1CCN2C(=O)c1c(F)c(F)c(F)c(F)c1F (stereo not shown) | 0.041 | 0.32 | 0.13 |  |  |  |  | 
29 | CN(C)C1(c2ccccc2)CCC2(CC1)c1[nH]c3ccccc3c1CCN2C(=O)c1ccc(F)c(F)c1 (stereo not shown) |  |  |  | 0.0019 | 0.76 | 0.0025 |  | 
30 | CN(C)C1(CCc2ccccc2)CCC2(CC1)c1[nH]c3ccccc3c1CCN2C(=O)c1cc(F)c(F)c(F)c1F (stereo not shown) |  |  |  |  |  |  | 91 | 31
31 | CC1Cc2c(n(C)c3ccccc23)C2(CCC(c3ccccc3)(N(C)C)CC2)O1 (stereo not shown) |  |  |  |  |  |  | 75 | 15
32 | COc1ccc2[nH]c3c(c2c1)CCOC31CCC(c2ccccc2)(N(C)C)CC1 (stereo not shown) | 0.002 | 0.34 | 0.006 |  |  |  |  | 
33 | CN(C)C1(Cc2ccccc2)CCC2(CC1)c1[nH]c3ccccc3c1CCN2C(=O)c1cc(F)cc(C(F)(F)F)c1 (stereo not shown) |  |  |  | 0.014 | 1.82 | 0.0077 |  | 
34 | CN(C)C1(c2ccccc2)CCC2(CC1)OCCc1c2[nH]c2ccc(-c3cnn(Cc4ccccc4)c3)cc12 (stereo not shown) | 0.012 | 2.73 | 0.0044 |  |  |  |  | 
35 | CN(C)C1(c2ccccc2)CCC2(CC1)c1[nH]c3ccccc3c1CC[S+]2[O-] (stereo not shown) | 0.06 | 0.94 | 0.06 |  |  |  |  | 
36 | CN(C)C1(Cc2ccccc2)CCC2(CC1)c1[nH]c3ccccc3c1CCN2C(=O)Cc1cccs1 (stereo not shown) |  |  |  | 0.011 | 0.79 | 0.014 |  | 
37 | CN(C)C1(c2ccccc2)CCC2(CC1)c1[nH]c3ccccc3c1CCN2C(=O)c1cccc(F)c1 (stereo not shown) |  |  |  | 0.0042 | 1.50 | 0.0028 |  | 
38 | Cc1ccccc1C(=O)N1CCc2c([nH]c3ccccc23)C12CCC(c1ccccc1)(N(C)C)CC2 (stereo not shown) |  |  |  | 0.02 | 0.65 | 0.031 |  | 

Row | Structure (SMILES) | Ki (human μ-opiate receptor; read-out: μ Ki, No. 1-49) [µM] | ORL1/μ Ratio calculated as Ki(μ)/Ki(ORL1) (ORL1 receptor; No. 1-49) | Ki (ORL1 receptor; [1]) [µM] | Ki (human μ-opiate receptor; read-out: μ, Ki, No. 50-145) [µM] | ORL1/μ ratio (ORL1 receptor; No. 50-145) | Ki (ORL1 receptor; read-out: ORL1, Ki, No. 50-145) [µM] | μ-opiate-receptor [1 μM], % inhibition (human μ-opiate receptor) [%] | ORL-1 [1 μM], % inhibition (ORL1 receptor) [%]
39 | CN(C)C1(Cc2ccccc2)CCC2(CC1)c1[nH]c3ccccc3c1CCN2C(=O)c1ccco1 (stereo not shown) |  |  |  | 0.0034 | 0.63 | 0.0054 |  | 
40 | CC(=O)N1CCc2c([nH]c3ccccc23)C12CCC(c1ccc(F)cc1)(N(C)C)CC2 (stereo not shown) | 0.0033 | 0.55 | 0.006 |  |  |  |  | 
41 | CN(C)C1(c2cccc(F)c2)CCC2(CC1)c1[nH]c3ccccc3c1CCN2C(=O)c1ccc(F)c(C(F)(F)F)c1 (stereo not shown) |  |  |  | 0.0091 | 1.28 | 0.0071 |  | 
42 | CN(C)C1(c2ccccc2)CCC2(CC1)c1[nH]c3ccccc3c1CCN2C(=O)c1ccc(F)c(C(F)(F)F)c1 (stereo not shown) |  |  |  | 0.036 | 1.00 | 0.036 |  | 
43 | CN(C)C1(c2cccc(F)c2)CCC2(CC1)c1[nH]c3ccccc3c1CCN2C(=O)c1cc(F)c(F)c(F)c1F (stereo not shown) |  |  |  | 0.0018 | 0.90 | 0.002 |  | 
44 | COc1ccccc1C(=O)N1CCc2c([nH]c3ccccc23)C12CCC(c1cccc(F)c1)(N(C)C)CC2 (stereo not shown) |  |  |  | 0.0027 | 2.78 | 0.00097 |  | 
45 | CN(C)C1(c2ccccc2)CCC2(CC1)c1[nH]c3ccccc3c1CCN2C(=O)c1cc(Cl)cc(Cl)c1 (stereo not shown) |  |  |  | 0.035 | 0.64 | 0.055 |  | 
46 | Cc1cccc(C(=O)N2CCc3c([nH]c4ccccc34)C23CCC(c2cccc(F)c2)(N(C)C)CC3)c1 (stereo not shown) |  |  |  | 0.01 | 0.91 | 0.011 |  | 
47 | COc1ccc(C(=O)N2CCc3c([nH]c4ccccc34)C23CCC(c2cccc(F)c2)(N(C)C)CC3)cc1 (stereo not shown) |  |  |  | 0.087 | 2.29 | 0.038 |  | 
48 | CN(C)C1(c2ccccc2)CCC2(CC1)c1[nH]c3ccccc3c1CCN2C(=O)c1ccc(C(F)(F)F)cc1 (stereo not shown) |  |  |  | 0.017 | 2.18 | 0.0078 |  | 
49 | CN(C)C1(c2ccccc2)CCC2(CC1)OCCc1c2[nH]c2cc(Cl)c(Cl)cc12 (stereo not shown) |  |  |  |  |  |  | 100 | 43
50 | CC(=O)N1CCc2c(oc3ccccc23)C12CCC(c1ccccc1)(N(C)C)CC2 (stereo not shown) |  |  |  |  |  |  | 78 | 33
51 | CN(C)C1(c2cccc(F)c2)CCC2(CC1)c1[nH]c3ccccc3c1CCN2C(=O)c1ccc(C(C)(C)C)cc1 (stereo not shown) |  |  |  | 0.0095 | 1.06 | 0.009 |  | 
52 | CN(C)C1(c2ccccc2)CCC2(CC1)c1[nH]c3ccccc3c1CCN2C(=O)c1ccccc1F (stereo not shown) |  |  |  | 0.0084 | 0.47 | 0.018 |  | 
53 | CN(C)C1(c2cccc(F)c2)CCC2(CC1)c1[nH]c3ccccc3c1CCN2C(=O)c1ccc(F)cc1 (stereo not shown) |  |  |  | 0.013 | 2.83 | 0.0046 |  | 
54 | COC(=O)C1Cc2c([nH]c3ccccc23)C2(CCC(c3ccccc3)(N(C)C)CC2)N1 (stereo not shown) | 0.0023 | 2.67 | 0.0009 |  |  |  |  | 
55 | CN(C)C1(c2ccccc2)CCC2(CC1)c1[nH]c3ccccc3c1CCN2C(=O)Cc1cccs1 (stereo not shown) |  |  |  | 0.0033 | 0.48 | 0.0069 |  | 
56 | COC(=O)CCC(=O)N1CCc2c([nH]c3ccccc23)C12CCC(c1cccc(F)c1)(N(C)C)CC2 (stereo not shown) |  |  |  | 0.025 | 0.86 | 0.029 |  | 
57 | CN(C)C1(c2ccccc2)CCC2(CC1)c1[nH]c3ccccc3c1CCN2C(=O)c1cc(F)cc(C(F)(F)F)c1 (stereo not shown) |  |  |  | 0.015 | 0.41 | 0.037 |  | 

Where two headings read alike, the source gives them in different places.
